Assay results as given in ChEMBL document CHEMBL1137342 (J Med Chem, 2006).

Chains of the proteins cited; added tags and fusions are not shown.
UniProt P21728, whole entry: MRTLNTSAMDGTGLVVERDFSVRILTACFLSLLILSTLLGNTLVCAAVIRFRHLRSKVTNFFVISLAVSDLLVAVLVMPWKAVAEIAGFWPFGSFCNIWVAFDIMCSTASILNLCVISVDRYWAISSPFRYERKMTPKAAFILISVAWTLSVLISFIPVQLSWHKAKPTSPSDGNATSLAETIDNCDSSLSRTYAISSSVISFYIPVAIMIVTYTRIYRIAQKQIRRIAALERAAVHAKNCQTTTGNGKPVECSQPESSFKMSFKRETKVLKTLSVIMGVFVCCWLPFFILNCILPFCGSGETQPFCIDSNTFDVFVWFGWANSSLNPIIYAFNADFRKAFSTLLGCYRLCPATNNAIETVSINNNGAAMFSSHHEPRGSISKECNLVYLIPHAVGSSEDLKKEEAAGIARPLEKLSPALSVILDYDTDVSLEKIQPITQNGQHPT

Key:
[1] = molecular target: T1, D(1A) dopamine receptor (Homo sapiens, UniProt P21728); experiment: Activity at human dopamine D1 receptor expressed in HEK293 cells assessed as stimulation of cAMP production; assay type: functional, cell-based
[2] = molecular target: T1, D(1A) dopamine receptor; experiment: Binding affinity to human cloned dopamine D1 receptor

## Oc1cc2c(cc1O)C1c3ccccc3CNC1CO2 (racemic) [DOXANTHRINE]
[1]
  EC50: 0.032 µM
[2]
  Ki: 0.098 µM

## Oc1cc2c(cc1O)[C@@H]1c3ccccc3CN[C@H]1CO2 (single isomer, unassigned)
[1]
  EC50: 1.1 µM

## Oc1cc2c(cc1O)[C@H]1c3ccccc3CN[C@@H]1CO2 (single isomer, unassigned)
[1]
  EC50: 0.029 µM
